Like-named read-outs stand apart in the source and are kept apart here.
Legend:
Format in all cases: biochemical
recombinant hSSAO = recombinant hSSAO (Homo sapiens (Human), UniProt Q16853); test: SSAO Activity Assay (MAO-Glo assay kit)
recombinant hMAO-B = recombinant hMAO-B (Homo sapiens (Human), UniProt P27338); test: MAO-B activity assay (MAO-Glo assay kit)
recombinant hMAO-A = recombinant hMAO-A (Homo sapiens (Human), UniProt P21397); test: MAO-A activity assay (MAO-Glo assay kit); details: read-out: MAO-A Activity (IC50), 40 μM substrate, 30 mins pre-incubation, tested form: HCl
[1] = read-out: SSAO Activity (IC50), 40 μM substrate, 30 mins pre-incubation
[2] = read-out: MAO-B Activity (IC50), 4 μM substrate, 30 mins pre-incubation, tested form: HCl
[3] = read-out: SSAO Activity (IC50), 40 μM substrate, 30 mins pre-incubation, tested form: HCl

Amino acid sequences for entries named in this document (tags omitted).
UniProt Q16853, whole entry: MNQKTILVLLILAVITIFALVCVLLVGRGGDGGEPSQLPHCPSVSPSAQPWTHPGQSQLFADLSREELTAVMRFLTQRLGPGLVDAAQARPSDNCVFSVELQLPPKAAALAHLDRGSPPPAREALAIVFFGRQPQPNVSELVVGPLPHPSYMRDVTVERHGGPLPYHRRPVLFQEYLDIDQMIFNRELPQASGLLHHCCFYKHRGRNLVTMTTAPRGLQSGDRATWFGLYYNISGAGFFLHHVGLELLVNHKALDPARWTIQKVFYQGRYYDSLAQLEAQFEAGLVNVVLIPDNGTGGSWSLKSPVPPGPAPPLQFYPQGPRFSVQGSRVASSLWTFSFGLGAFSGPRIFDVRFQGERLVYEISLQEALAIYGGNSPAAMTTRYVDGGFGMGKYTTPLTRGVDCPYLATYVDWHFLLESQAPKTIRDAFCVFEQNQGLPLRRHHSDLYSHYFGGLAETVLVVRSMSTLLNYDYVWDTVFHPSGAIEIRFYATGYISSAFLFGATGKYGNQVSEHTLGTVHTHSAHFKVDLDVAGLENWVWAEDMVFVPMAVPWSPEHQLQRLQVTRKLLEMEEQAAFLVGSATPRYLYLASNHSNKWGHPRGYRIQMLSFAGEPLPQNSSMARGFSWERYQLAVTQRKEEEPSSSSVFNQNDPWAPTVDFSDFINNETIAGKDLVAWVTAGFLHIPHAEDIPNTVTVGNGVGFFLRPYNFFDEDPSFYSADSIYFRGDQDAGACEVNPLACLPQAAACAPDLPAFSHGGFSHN
UniProt P27338, whole entry: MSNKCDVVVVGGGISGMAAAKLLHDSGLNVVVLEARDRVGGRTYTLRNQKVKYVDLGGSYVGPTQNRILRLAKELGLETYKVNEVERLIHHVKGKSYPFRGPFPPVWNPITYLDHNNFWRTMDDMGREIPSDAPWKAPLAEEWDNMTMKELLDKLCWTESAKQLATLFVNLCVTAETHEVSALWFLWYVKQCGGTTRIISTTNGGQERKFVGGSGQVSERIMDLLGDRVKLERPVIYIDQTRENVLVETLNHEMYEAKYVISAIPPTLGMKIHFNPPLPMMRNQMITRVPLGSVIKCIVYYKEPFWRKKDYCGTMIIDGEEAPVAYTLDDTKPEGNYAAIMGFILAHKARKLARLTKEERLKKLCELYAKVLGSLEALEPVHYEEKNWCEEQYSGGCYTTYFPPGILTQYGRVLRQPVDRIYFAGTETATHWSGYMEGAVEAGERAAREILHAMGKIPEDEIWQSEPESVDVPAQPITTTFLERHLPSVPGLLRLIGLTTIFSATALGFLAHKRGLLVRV
UniProt P21397, whole entry: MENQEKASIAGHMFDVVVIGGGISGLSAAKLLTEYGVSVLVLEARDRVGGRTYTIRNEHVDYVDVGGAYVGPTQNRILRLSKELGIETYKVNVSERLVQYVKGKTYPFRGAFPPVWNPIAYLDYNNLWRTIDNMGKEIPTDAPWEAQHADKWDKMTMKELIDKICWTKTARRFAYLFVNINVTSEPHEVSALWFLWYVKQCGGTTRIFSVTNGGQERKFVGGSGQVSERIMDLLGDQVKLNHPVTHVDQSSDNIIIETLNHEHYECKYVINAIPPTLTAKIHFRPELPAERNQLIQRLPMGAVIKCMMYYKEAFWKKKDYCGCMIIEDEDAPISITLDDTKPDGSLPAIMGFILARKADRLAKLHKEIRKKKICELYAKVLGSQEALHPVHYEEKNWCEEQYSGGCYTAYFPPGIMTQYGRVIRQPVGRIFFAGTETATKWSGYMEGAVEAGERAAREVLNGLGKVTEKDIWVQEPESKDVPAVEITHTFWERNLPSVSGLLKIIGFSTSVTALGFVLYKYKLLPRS

Row | IC50 (recombinant hSSAO; [1]) [nM] | IC50 (recombinant hMAO-B; [2]) [nM] | IC50 (recombinant hMAO-A) [nM] | also measured | Compound
1 | 20 to 100 |  |  |  | C[C@H](CN1CCOCC1)CS(=O)(=O)c1ccc(OC/C(=C/F)CN)cc1
2 | 20 to 100 |  |  | IC50 (recombinant hMAO-B; read-out: MAO-B Activity (IC50), 4 μM substrate, 30 mins pre-incubation): 10000 to 30000 nM | CC1(C)COC(CS(=O)(=O)c2ccc(OC/C(=C/F)CN)cc2)CO1 (single isomer, unassigned)
3 |  | > 30000 | > 30000 | IC50 (recombinant hSSAO; read-out: SSAO Activity (IC50), 40 μM substrate, 30 mins pre-incubation, tested form: HCl, listed as 93 or 94): > 500 nM; IC50 (recombinant hSSAO; read-out: SSAO Activity (IC50), 40 μM substrate, 30 mins pre-incubation, tested form: HCl, listed as 94 or 93): 20 to 100 nM | CC(CN1CCCC1=O)CS(=O)(=O)c1ccc(OC/C(=C/F)CN)cc1 (single isomer, unassigned)
4 | 20 to 100 |  |  |  | C[C@H](CN1CCCCC1=O)CS(=O)(=O)c1ccc(OC/C(=C/F)CN)cc1
5 | 20 to 100 |  |  |  | NCC(=CF)COc1ccc(S(=O)(=O)CC2CCOC2)cc1 (single isomer, unassigned)
6 |  | < 10000 | > 30000 | IC50 (recombinant hSSAO; [3]): 20 to 100 nM | CC(CN1CCC2(CCCC2)C1=O)CS(=O)(=O)c1ccc(OC/C(=C/F)CN)cc1 (single isomer, unassigned)
7 |  | > 30000 | > 30000 | IC50 (recombinant hSSAO; [3]): 20 to 100 nM | CC(C)N1CCC2(CCC(CS(=O)(=O)c3ccc(OC/C(=C/F)CN)cc3)CC2)C1=O (single isomer, unassigned)
8 | 20 to 100 |  |  |  | C[C@@H](CN1CCCCC1=O)CS(=O)(=O)c1ccc(OC/C(=C/F)CN)cc1
9 |  |  |  | IC50 (recombinant hSSAO; read-out: SSAO Activity (IC50), 40 μM substrate, 30 mins pre-incubation, listed as 23 or 24): 20 to 100 nM | NCC(=CF)COc1ccc(S(=O)(=O)CC2CCCO2)cc1 (single isomer, unassigned)

Source: patent publication US11472769B2, “SSAO inhibitors and use thereof” (Eccogene (Shanghai) Co., Ltd., priority 2019, dated 2022)
